Reference: the supplement of paper PMC10702517

Assay: chemical recovery from spiked human plasma; higher = better extraction
Settings: pooled human plasma
[1] = extraction method: SPE only (HLB 96-well)
[2] = extraction method: solvent precipitation (ACN + hexane)

| SMILES | chemical recovery (extraction method: PES+SPE (3 d PDMS equilibration then HLB SPE)) [%] | chemical recovery [1] [%] | chemical recovery (extraction method: SPE only (HLB 96-well), PES comparison experiment) [%] | chemical recovery [2] [%] |
| --- | --- | --- | --- | --- |
| CCC[N+](CCC)(CCC)CCC [Tetrapropylammonium] | 28.4 ± 5.6 | 23.8 ± 7 | 34.3 ± 11 | 78.6 ± 4.2 |
| CCOP(=S)(OCC)Oc1ncn(-c2ccccc2)n1 [Triazophos] | – | 33.7 ± 1.6 | – | 67.2 ± 2.5 |

± gives the standard deviation.
